The test system of the test is A375 melanoma cell line (B-Raf V600E). Kind of test: A375 Cellular Proliferation Assay (A375 CP). Particulars: Homo sapiens, A-375, 48 h; A375-luc cells, 2 days. Type of test: cell-based. How it is done: A375-luc cells engineered to express luciferase are plated to 384-well white clear bottom plates as 1,500 cells/50 μl/well in DMEM containing 10% FBS. Compounds of the invention dissolved in 100% DMSO at appropriate concentrations are transferred to the cells by a robotic Pin Tool (100 nl). The cells are incubated for 2 days at […], then 25 μl of BrightGlo™ is added to each well and the plates are read by luminescence.

The results in this text go back to US10568884B2, “Compounds and compositions as protein kinase inhibitors” (Array BioPharma, Inc., priority 2009, dated 2020).

Take `COC(=O)N[C@@H](C)CNc1nccc(-c2cn(C(C)C)nc2-c2cc(F)cc(NS(=O)(=O)C3CC3)c2F)n1` [Compound 24, methyl N-[(2S)-1-({4-[3-(3-cyclopropanesulfonamido-2,5-difluorophenyl)-1-(propan-2-yl)-1H-pyrazol-4-yl]pyrimidin-2-yl}amino)propan-2-yl]carbamate]: 23 nM corresponded to half-maximal inhibition (IC50).

What is called IC50 is the point on the concentration scale where inhibition reaches its midpoint. Low values mean inhibition by little substance, high ones a need for much substance.
